Molecular target: T1, cloned rat NPFF1 receptor (Rattus norvegicus, UniProt Q9EP86)
T1 construct: expressed in transfected cells; host or cells: COS-7 cells, transient; membranes
Test: Radioligand binding to cloned rat NPFF1 receptor, membranes of transiently transfected COS-7 cells
Details: competition of [125I]D-Tyr-NPFF binding; transiently transfected COS-7 membranes
Method: Transfected cells from culture flasks are scraped into 5 ml of 20 mM Tris-HCl, 5 mM EDTA, pH 7.5, and lysed by sonication. The cell lysates are centrifuged at 1000 rpm for 5 min. at 4° C., and the supernatant is centrifuged at 30,000× g for 20 min. at 4° C. […] Optimal membrane suspension dilutions, defined as the protein concentration required to bind less than 10% of the added radioligand, […], unlabeled compounds, and binding buffer to a final volume of 250 μl. In equilibrium saturation binding assays membrane preparations are incubated in the presence of increasing concentrations of [^3H]-labeled compound.
Competition assay: 50 pM radioligand, 10–12 points. Binding reaction mixtures are incubated for 2 hr at 25° C., and the reaction stopped by filtration through a double layer of GF filters treated with 0.1% polyethyleneimine, using a cell harvester. Wash buffer: 50 mM Tris-HCl, 0.1% BSA. Radioactivity may be measured by scintillation counting and data are analyzed by a computerized non-linear regression program. Non-specific binding is defined as the amount of radioactivity remaining after incubation of membrane protein in the presence of 1 μM final concentration […]. Protein concentration may be measured by the Bradford method using Bio-Rad Reagent, with bovine serum albumin as a standard. […]

Protein sequences, listed by entry. Tags and fused reporters are not part of them. Lines headed by an entry give the natural chain unless they say otherwise; changes in a name come on top.
UniProt Q9EP86: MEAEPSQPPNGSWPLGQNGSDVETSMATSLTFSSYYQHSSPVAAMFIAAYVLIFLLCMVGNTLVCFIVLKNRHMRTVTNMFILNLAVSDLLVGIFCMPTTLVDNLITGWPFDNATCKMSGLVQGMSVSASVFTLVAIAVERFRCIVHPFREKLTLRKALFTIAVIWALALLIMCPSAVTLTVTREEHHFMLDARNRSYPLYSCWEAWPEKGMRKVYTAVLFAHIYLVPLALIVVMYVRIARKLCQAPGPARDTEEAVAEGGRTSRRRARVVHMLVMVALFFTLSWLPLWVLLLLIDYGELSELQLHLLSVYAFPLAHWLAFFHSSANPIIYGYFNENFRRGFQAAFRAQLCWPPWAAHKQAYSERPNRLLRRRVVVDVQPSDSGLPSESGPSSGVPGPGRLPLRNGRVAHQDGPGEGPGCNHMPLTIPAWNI

Substance | pKi for cloned rat NPFF1 receptor binding in COS-7 cells, MEAN
a-MSH | 5.000
substance P | 5.000
